High-throughput results as filed in PubChem BioAssay.
miR-21 reporter – miR-21 reporter, rising signal; HeLa miR-21 FLuc reporter, luciferase, 48 h; Potency, µM (titrated, usually from 38.3 µM); 340,000 tested, under 10 active; AID 2288; active = well fitted rising curve with a large enough effect; inconclusive = small, poorly fitted or top-dose-only effect; inactive = no such curve, though single readings can be large or run the other way;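 also: miR-21 action dims this reporter so a rising signal means less miR-21 action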
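Compounds were titrated across several concentrations (up to approximately 40 uM) and incubated 48 hours with HeLa miR-21-FLuc reporter cells (miR-21 target sequence downstream of FLuc, endogenous miR-21). Readout was firefly luciferase luminescence after lytic detection reagent.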
ALOX12 inh – inhibitors of human 12S-lipoxygenase ALOX12; P18054; Potency, µM (highest dose often 108 µM), actives largely listed as inhibitors; actives 1.1% (n = 580,000); purified 12hLO, xylenol orange hydroperoxide absorbance
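Purified human 12hLO (150 nM final) in 25 mM Hepes, 0.01% Triton X-100, pH 7.0 was preincubated 15 min at room temperature with compound. Then 40 uM arachidonic acid was added, 30 min. Hydroperoxide was read by Fe-XO absorbance ratio 573/405 nm.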
ERG Ets-DNA blk – ERG Ets/DNA interaction inhibition; P11308; fluorescence polarization, His-ERG Ets domain / labelled DNA; Potency, µM (doses to about 76.9 µM), usual class: inhibitors; actives 0.028% (n = 370,000); AID 624246; active = well fitted inhibition curve with a large enough effect in the polarisation, with a control signal flat; inconclusive = small, poorly fitted or top-dose-only effect, or effect the other way, or a change in a side signal; inactive = no such curve, though single readings can be large or run the other way; the % refers to the polarisation;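 note: polarization taken with two DNA probes labelled with fluorescein and Texas red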
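His-tagged ERG Ets domain (1 uM in the protein solution; 300mM KCl, 50mM Tris-HCl, 1mM EDTA, 1mM DTT, pH 7.5) received compound, then a probe mix of 5 nM fluorescein-DNA and 100nM Texas-615-DNA. Fluorescence polarization was read for both dyes.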
PTHR1 ag – agonists of human PTHR1 parathyroid hormone receptor | Q03431 | HEK293 GP2 PTHR1 cells, GloSensor cAMP luminescence, 1 h | Potency, µM (titrated, usually from 115 µM), usual class: activators | actives 0.075% (n = 410,000) | AID 743266; note: nearly all actives have a fitted effect of over 55% in size
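HEK-293-derived GP2 cells expressing PTHR1 and a GloSensor cAMP reporter, 3,000/well, plated overnight, given luciferin plus IBMX (each 0.5 mM as added) for 1 h at 37 °C, then compound for 1 h at 37 °C. Luminescence was read after 15 min at room temperature.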
PINK1 expr mod – modulators of PINK1 expression | AID 624263 | PINK1 immunofluorescence, high-content cytometry, 24 h | Potency, µM (top dose mostly 76.6 µM), actives largely listed as activators | actives 0.2% (n = 410,000); active = well fitted activation curve with a large enough effect; inconclusive = small, poorly fitted or top-dose-only effect; cell line not stated here; note: nearly all actives have a fitted effect of over 65% in size
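Measures PINK1 amount and localization on or inside mitochondria by immunofluorescence. Stable cells get compounds at 5 concentrations for 24 hours before fixation and staining; CCCP controls included.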
Giardia killer – Giardia lamblia killing; actives 0.15% (n = 340,000); activity change, % at 7.66 µM, hits read low; Giardia lamblia trophozoite viability; in the data active = activity change below about -80%; inconclusive = between about -30% and that limit;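 note: parasites exposed to compound for two days anaerobically before the ATP read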
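Giardia trophozoites, 100 cells per well, were exposed to compounds for 48 hrs at 37 deg C under anaerobic conditions; viability was then read as ATP content by bioluminescence after 15-30 min at room temperature.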
A number is an active result; i = inactive; ? = inconclusive; nt = not tested or not shown; [ ] = another dose, or the depositor's remark. Shown are actives, neighbours in structure and some others; about 1.3% of the full set was active somewhere. Unless noted, calls come from the whole dose curve; as a rule, active = well fitted curve in the direction sought with a large enough effect; inconclusive = small, poorly fitted or top-dose-only effect, or another doubt; inactive = no such curve, though single readings can be large; an effect the other way counts as inactive or inconclusive.

SMILES | miR-21 reporter | ALOX12 inh | ERG Ets-DNA blk | PTHR1 ag | PINK1 expr mod | Giardia killer
CC(C)N1CCN(CCN2CC3(CCN(C(=O)CCN)CC3)OC2=O)CC1 | nt | 18µM | nt | nt | nt | nt
O=C(Nc1ccc2nc(SCc3cccc4ccccc34)sc2c1)c1ccc(Cl)cc1 | nt | 28µM | nt | nt | nt | nt
CCCC(=O)O[C@]1(C(=O)CO)CC[C@H]2[C@@H]3CCC4=CC(=O)CC[C@]4(C)[C@H]3[C@@H](O)C[C@@]21C | i | i[22.9 µM] | i | i | i | i
O=C(N=Nc1c(O)[nH]c2ccccc12)c1ccc2c(c1)OCO2 | i | i | i | i | i | -82
COc1cc2[nH]c(=O)c(C(=O)NCc3ccc(F)cc3)c(O)c2cc1OC | i | i | i | i | i | i
CCOc1ccccc1CN1CCC2(CCN([S+](=O)([O-])c3cccs3)CC2)Oc2ccccc21 | nt | i | nt | nt | nt | nt
CCOc1ccccc1CN1CCC2(CCN(C(=O)Nc3ccccc3)CC2)Oc2ccccc21 | nt | 25µM | nt | nt | nt | nt
O=C(CSc1nc2ccc(Cl)cc2[nH]1)N1N=C(c2cccs2)CC1c1ccco1 (stereo not given) | nt | 18µM | nt | nt | nt | nt
COc1ccc(CN2C(=O)c3cccnc3C2=O)cc1S(=O)(=O)NCc1ccc(C)o1 | i | i | i | i | i | i
COc1ccccc1CNS(=O)(=O)c1cc(CN2C(=O)c3cccnc3C2=O)ccc1OC | i | 35µM | i | i | i | i
O=C(O)CNS(=O)(=O)c1ccc2c(c1)Cc1cc(S(=O)(=O)NCC(=O)O)ccc1-2 | i | 8.9µM | i | i | i | i
O=C(O)CNS(=O)(=O)c1ccc2c(c1)C(=O)c1cc(S(=O)(=O)NCC(=O)O)ccc1-2 | i | i | i | i | i | i
Cc1ccsc1C(=O)N1CCC[C@H](n2c(=O)n(CC3CC3)c3cccnc32)C1 | nt | i | nt | nt | nt | nt
COc1ccc(NC(=O)c2cc3c(n2C)CCN(Cc2ccc(F)cc2)C3)cc1 | nt | 18µM | nt | nt | nt | nt
COc1cccc(CN2CCc3c(cc(C(=O)Nc4ccccc4)n3C)C2)c1 | nt | i | nt | nt | nt | nt
CC1(C)CC(=O)c2sc(NC(=O)CN3CCCCC3)nc2C1 | i | 32µM | i | i | i | i
CC1(C)CC(=O)c2sc(NC(=O)c3ccccc3)nc2C1 | i | nt | nt | nt | nt | nt
CC1(C)CC(=O)c2sc(NC(=O)c3cccs3)nc2C1 | i | i | i | i | i | -96
Cc1nc(C)c(C(=O)OC(C)C(=O)Nc2ccc(F)cc2)s1 (stereo not given) | nt | i | i | i | i | i
CCCCCCOc1ccc(CNc2cccc3ccccc23)cc1 | nt | 4.5µM | nt | nt | nt | nt
COc1ccc(C2N=C(N)Nc3nc4ccccc4n32)cc1 (stereo not given) | i | i | i | 50µM | i | nt
CCc1ccc(C(C)NC(=O)c2ncn[nH]2)cc1 (stereo not given) | i | i | i | i | i | i
O=C1c2ccccc2NC(c2ccc(-c3cccs3)o2)N1O (stereo not given) | nt | ? | nt | i | i | i
O=C1c2ccccc2NC(c2ccc(-c3ccc(C(F)(F)F)cc3)o2)N1O (stereo not given) | nt | 28µM | nt | i | i | i
NC(=O)C1CCN(Cc2nc3cc(Cl)ccc3c(=O)[nH]2)CC1 | i | 13µM | i | i | i | i
SMILES | miR-21 reporter | ALOX12 inh | ERG Ets-DNA blk | PTHR1 ag | PINK1 expr mod | Giardia killer
COc1ccccc1CNC(=O)CCc1c(C)c2ccc(O)c(C)c2oc1=O | nt | i | nt | nt | nt | nt
Cn1c(N)c(-c2csc(NC3CC3)n2)c(=O)n(C)c1=O | nt | 7.9µM | nt | nt | nt | nt
Cn1c(N)c(-c2csc(Nc3ccccc3)n2)c(=O)n(C)c1=O | nt | 45µM | nt | nt | nt | nt
Cn1c(=O)c2c(nc(NC3CCCC3)n2C)n(C)c1=O | i | i | i | i | i | i
CC(=O)Nc1cccc(Oc2nc(NC(C)C)nc3cc(-c4ccccc4)sc23)c1 | nt | i | nt | i | ? | nt
COC(=O)c1sc(NC(=O)c2cc(-c3ccccc3)nc3ccccc23)c(C#N)c1C | i | i | i | i | 5.6µM | i
CCOC(=O)c1sc(NC(=O)c2cc(-c3ccc(C)cc3)nc3ccccc23)c(C#N)c1C | i | ? | i | i | ? | i
Cc1ccccc1-c1cc(C(=O)Nc2sc(C(=O)OC(C)C)c(C)c2C#N)c2ccccc2n1 | ? | i | i | i | 13µM | i
Cc1cc(C)cc(OC(C)C(=O)Nc2nonc2-c2ccc(Br)cc2)c1 (stereo not given) | i | i | i | i | 16µM | nt
Cc1ccccc1NC(=O)c1nc2nccc(C)n2n1 | i | nt | nt | nt | nt | nt
COc1ccc(NC(=O)N2C[C@@H]3C[C@H](C2)c2c(NC(=O)c4ccccc4)ccc(=O)n2C3)cc1 | nt | i | nt | nt | nt | nt
O=C(O)Cc1sc(-c2cccnc2)nc1-c1ccc(Br)cc1 | i | 35µM | i | i | i | i
CCOC(=O)CNC(=O)CSc1nnc(NC(=O)c2ccc(C)cc2)s1 | i | i | i | i | i | -87
CC(C)Oc1ccc(C(=O)Nc2nnc(SCC(=O)N3CCOCC3)s2)cc1 | i | i | i | i | i | -95
Cc1ccc(C(=O)Nc2nnc(SCC(=O)N3CCCc4ccccc43)s2)cc1 | i | i | i | i | i | -125
Cc1cccc(NC(=S)Nc2cccc(C)n2)n1 | i | i | i | i | i | i
Cc1cccc(NC(=S)NC2CCCC2)n1 | i | 45µM | i | i | i | i
Cc1cccc(NC(=S)NC2CCCCC2)n1 | i | 40µM | i | i | i | i
Cc1cccc(NC(=S)Nc2ccc(Oc3ccccc3)cc2)n1 | i | 10µM | i | i | i | i
COCC(C)NS(=O)(=O)c1ccc(NC(=O)C(Cc2ccccc2)NC(N)=O)cc1 (stereo not given) | i | i | i | i | i | i
Cc1ccc(S(=O)(=O)Nc2c3ccccc3nc(=O)n2-c2ccccc2)cc1 | i | i | i | i | i | i
Fc1ccc(-c2cnc(COc3ccc(Cl)cc3)o2)cc1 | nt | 14µM | nt | nt | nt | nt
CC1(C)Cc2nc3sc4c(=O)n(CC(=O)NCc5ccco5)cnc4c3cc2CO1 | i | i | i | i | 11µM | i
CC1(C)Cc2nc3oc4c(=O)n(CC(=O)Nc5ccccc5)cnc4c3cc2CO1 | i | i | i | i | i | i
O=C(O)c1cccnc1Sc1ccc(Cl)cc1 | i | i | i | 50µM | i | i
O=C(O)c1cccnc1Sc1ccccc1 | i | i | i | i | i | i
O=C(NCc1ccco1)c1sc(=S)n2c1[nH]c(=O)c1ccccc12 | i | 16µM | i | i | ? | i
O=C(NCc1ccccc1)c1ccc2c(=O)[nH]c3c(C(=O)NCC4CCCO4)sc(=S)n3c2c1 (stereo not given) | i | ? | i | i | i | i
O=C(NC1CCCC1)c1sc(=S)n2c1[nH]c(=O)c1ccccc12 | i | ? | i | i | 32µM | i
Cc1nn2c(c1-c1ccccc1-c1ccccc1)N(Cc1ccc(C(=O)O)s1)CCC2 | nt | i | nt | nt | nt | nt
